US20110020272A1, “COMBINATION THERAPY FOR TREATING HEPATITIS VIRAL INFECTION” (priority 2009, published 2011)

Test system: HCV replicon (Con-1) in Huh-7 Luc-ubi-neo/ET replicon cells
Experiment: Luciferase reporter assay, treatment protocols I to VI, Huh-7 Luc-ubi-neo/ET replicon cells

For `O=C1CN(N=C[C@H](Cc2ccccc2)NC(=O)[C@H](Cc2c[nH]c3ccccc23)NC(=O)[C@H](Cc2c[nH]c3ccccc23)NC(=O)OCc2ccccc2)C(=O)N1` [S-2209, S,S,S-[1-[1-[1-Benzyl-2-(2,4-dioxo-imidazolidin-1-ylimino)-ethylcarbamoyl]-2-(1H-indol-3-yl)-ethylcarbamoyl]-2-(1H-indol-3-yl)-ethyl]-carbamic acid benzyl ester], which “effect on viral propagation, protocol III” value is on record?
Its value is “markedly enhanced effect in lowering viral propagation”.

And the “effect on replication, protocol I versus protocol II” value (1.85 μM S-2209 24 h first, then IFN-a 0.75 IU/ml / RbV 25 μM 24 h (protocol I) vs reverse order (protocol II))?
The value was “indistinguishable from the effect of the reverse treatment”.

What about the “effect on replication, triple treatment (protocol VI)” value (three 24 h treatments with proteasome inhibitor and IFNa or IFN-a/RbV) of the same compound?
Its value is “most pronounced effect”.
